Measurements published in ChEMBL document CHEMBL4808225, “Discovery and Characterization of Selective and Ligand-Efficient DYRK Inhibitors” (J Med Chem, 2021).

These compounds were tested against Dual specificity tyrosine-phosphorylation-regulated kinase 1A (Homo sapiens, UniProt Q13627). Conditions: time min <=5.

Compared with `CN(C)c1ncc(Cl)c(-c2cnn3ncccc23)n1`, `CN(C)c1ncc(F)c(-c2cnn3ncccc23)n1` is higher in Ka: 1.6 10^6/M/s for the first, 4.7 10^6/M/s for the second.

Going from `c1cnn2ncc(-c3ccnc(N4CCC45COC5)n3)c2c1` to `Nc1nccc(-c2cnn3ncccc23)n1`, the Ka rises from 3.9 10^6/M/s to 7.3 10^6/M/s.

Compared with `CNc1nccc(-c2cnn3ncccc23)n1`, `CN(c1nccc(-c2cnn3ncccc23)n1)C1CC1` is higher in Ka: 6 10^6/M/s for the first, 6.3 10^6/M/s for the second.

In the case of `CN(C)c1ncnc(-c2cnn3ncccc23)n1`, the Ka is reported as 2.9 10^6/M/s.
